Experimental data: patent US9403767B2, “Substituted 4-aminocyclohexane derivatives” (dated 2016)

Sequences of proteins named here, by UniProt entry; tags and fusion partners are left off. A change or cut given only in a name is not applied to a line headed by its entry.
UniProt P35372, whole entry, looked up: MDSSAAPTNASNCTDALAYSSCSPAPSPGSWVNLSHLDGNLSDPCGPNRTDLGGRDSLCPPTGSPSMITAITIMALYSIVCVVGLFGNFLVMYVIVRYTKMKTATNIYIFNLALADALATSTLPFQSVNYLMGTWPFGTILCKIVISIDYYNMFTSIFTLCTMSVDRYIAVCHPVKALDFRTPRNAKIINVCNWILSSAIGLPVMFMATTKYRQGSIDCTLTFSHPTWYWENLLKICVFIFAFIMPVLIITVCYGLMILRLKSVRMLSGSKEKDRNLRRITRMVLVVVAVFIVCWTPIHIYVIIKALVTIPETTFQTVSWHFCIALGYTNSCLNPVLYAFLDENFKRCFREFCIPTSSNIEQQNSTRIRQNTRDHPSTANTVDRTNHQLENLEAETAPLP
UniProt P41146: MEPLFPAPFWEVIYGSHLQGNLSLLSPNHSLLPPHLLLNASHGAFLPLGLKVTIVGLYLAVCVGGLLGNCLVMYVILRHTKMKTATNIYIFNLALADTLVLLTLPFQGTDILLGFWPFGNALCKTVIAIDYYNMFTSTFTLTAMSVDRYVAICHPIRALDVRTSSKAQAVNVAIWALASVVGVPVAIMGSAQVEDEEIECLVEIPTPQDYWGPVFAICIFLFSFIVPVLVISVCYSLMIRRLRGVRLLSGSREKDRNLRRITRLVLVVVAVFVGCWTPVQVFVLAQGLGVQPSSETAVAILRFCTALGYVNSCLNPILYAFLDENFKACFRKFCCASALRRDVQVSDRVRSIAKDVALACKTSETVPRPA

What was measured:
human μ-opiate receptor = human μ-opiate receptor (Homo sapiens (Human), UniProt P35372); assay: μ-opiate receptor binding assay with [3H]-naloxone (CHO-K1 membrane preparation); details: for % Inhibition (μ) [1 μM]: test concentration 1 μM; for Ki: read-out: Ki (μ) Mean
ORL 1-receptor = ORL 1-receptor (Homo sapiens (Human), UniProt P41146); assay: ORL 1 receptor binding assay with 3H-nociceptin/orphanin FQ (membranes of recombinant CHO-ORL 1 cells); details: for % Inhibition (ORL1) [1 μM]: test concentration 1 μM; for Ki: read-out: Ki (ORL1) Mean

## [4-(acetidin-1-yl)-4-(3-methyl-1H-indol-2-yl)-1-phenyl-cyclohexyl]-dimethylamine
Human μ-opiate receptor
  % Inhibition (μ) [1 μM]: 56%
ORL 1-receptor
  % Inhibition (ORL1) [1 μM]: 22%

## Cc1c(C2(N(C)C)CCC(c3ccccc3)(N(C)C)CC2)[nH]c2ccccc12 (stereo not shown)
ORL 1-receptor
  % Inhibition (ORL1) [1 μM]: 30%

## CN(C)C1(c2ccccc2)CCC(c2ccccc2)(N(C)C(=O)c2cccnc2)CC1 (stereo not shown)
ORL 1-receptor
  % Inhibition (ORL1) [1 μM]: 54%

## CN(C)C1(c2ccccc2)CCC(c2ccccc2)(N(C)Cc2cccc(F)c2)CC1 (single isomer, unassigned)
ORL 1-receptor
  % Inhibition (ORL1) [1 μM]: 89%

## CNc1nc(NC)nc(N(C)C2(c3ccccc3)CCC(c3ccccc3)(N(C)C)CC2)n1 (stereo not shown)
ORL 1-receptor
  % Inhibition (ORL1) [1 μM]: 35%

## CN(C)C1(c2ccccc2)CCC(c2ccccc2)(N(C)Cc2cccc(F)c2)CC1 (stereo not shown)
ORL 1-receptor
  Ki: 1.43 nM
  % Inhibition (ORL1) [1 μM]: 52%

## 2-[(4-dimethylamino-1,4-diphenyl-cyclohexyl)-methyl-amino]-N,N-dimethyl-acetamide
Human μ-opiate receptor
  Ki: 2600 nM
ORL 1-receptor
  % Inhibition (ORL1) [1 μM]: 65%

## CN(C)C1(c2ccccc2)CCC(c2ccccc2)(N(C)C(=O)CCC(=O)O)CC1 (stereo not shown)
Human μ-opiate receptor
  % Inhibition (μ) [1 μM]: 22%
ORL 1-receptor
  % Inhibition (ORL1) [1 μM]: 37%

## CNc1nc(NC)nc(N(C)C2(c3ccccc3)CCC(c3ccccc3)(N(C)C)CC2)n1 (single isomer, unassigned)
ORL 1-receptor
  % Inhibition (ORL1) [1 μM]: 44%

## CNC1(c2ccccc2)CCC(c2ccc(OC)cc2)(N(C)C)CC1 (stereo not shown)
Human μ-opiate receptor
  % Inhibition (μ) [1 μM]: 43%
ORL 1-receptor
  % Inhibition (ORL1) [1 μM]: 15%

## CC(=O)NCC1(C)CCC(c2ccccc2)(N(C)C)CC1.O=C(O)CC(O)(CC(=O)O)C(=O)O (stereo not shown)
Human μ-opiate receptor
  % Inhibition (μ) [1 μM]: 61%
ORL 1-receptor
  % Inhibition (ORL1) [1 μM]: 17%

## CNC1(c2ccccc2)CCC(c2ccc(C(F)(F)F)cc2)(N(C)C)CC1 (single isomer, unassigned)
Human μ-opiate receptor
  % Inhibition (μ) [1 μM]: 55%
ORL 1-receptor
  % Inhibition (ORL1) [1 μM]: 38%

## Cc1c(C2(N3CCCC3)CCC(c3ccccc3)(N(C)C)CC2)[nH]c2ccc(F)cc12 (stereo not shown)
ORL 1-receptor
  % Inhibition (ORL1) [1 μM]: 23%

## Cc1c(C2(N(C)C)CCC(c3ccccc3)(N(C)C)CC2)[nH]c2ccccc12 (single isomer, unassigned)
ORL 1-receptor
  % Inhibition (ORL1) [1 μM]: 29%

## CN(Cc1c[nH]c2ccccc12)CC1(C)CCC(c2ccccc2)(N(C)C)CC1 (single isomer, unassigned)
Human μ-opiate receptor
  % Inhibition (μ) [1 μM]: 67%
ORL 1-receptor
  % Inhibition (ORL1) [1 μM]: 39%

## CNc1nc(Oc2ccc(OC)cc2)nc(N(C)C2(c3ccccc3)CCC(c3ccccc3)(N(C)C)CC2)n1 (stereo not shown)
ORL 1-receptor
  % Inhibition (ORL1) [1 μM]: 53%

## CN(C)C1(c2ccccc2)CCC(c2ccccc2)(N(C)C(=O)c2cccc(C(F)(F)F)c2)CC1 (stereo not shown)
Human μ-opiate receptor
  % Inhibition (μ) [1 μM]: 101%
ORL 1-receptor
  % Inhibition (ORL1) [1 μM]: 91%

## CN(C)C1(c2ccccc2)CCC(C(=O)c2cc3ccccc3n2C)(N2CCCC2)CC1 (stereo not shown)
Human μ-opiate receptor
  % Inhibition (μ) [1 μM]: 22%
ORL 1-receptor
  % Inhibition (ORL1) [1 μM]: 9%

## CN(C)C1(c2ccccc2)CCC(c2ccccc2)(N(C)CCCCO)CC1 (stereo not shown)
Human μ-opiate receptor
  % Inhibition (μ) [1 μM]: 62%
ORL 1-receptor
  % Inhibition (ORL1) [1 μM]: 88%

## COCc1c(C2(OC)CCC(c3ccccc3)(N(C)C)CC2)[nH]c2ccccc12.O=C(O)CC(O)(CC(=O)O)C(=O)O (stereo not shown)
Human μ-opiate receptor
  % Inhibition (μ) [1 μM]: 67%
ORL 1-receptor
  % Inhibition (ORL1) [1 μM]: 17%

## CNC1(c2[nH]c3ccccc3c2C)CCC(c2cccc(F)c2)(N(C)C)CC1 (stereo not shown)
Human μ-opiate receptor
  % Inhibition (μ) [1 μM]: 78%
ORL 1-receptor
  % Inhibition (ORL1) [1 μM]: 38%

## CN(C)CC1(c2ccccc2)CCC(c2ccccc2)(N(C)C)CC1 (single isomer, unassigned)
ORL 1-receptor
  % Inhibition (ORL1) [1 μM]: 66%

## 4-chloro-N-((-4-(dimethylamino)-1-methyl-4-phenylcyclohexyl)methyl)benzol sulphonamide 2-hydroxypropane-1,2,3-tricarboxylate
Human μ-opiate receptor
  Ki: 1.25 nM
  % Inhibition (μ) [1 μM]: 100%
ORL 1-receptor
  Ki: 2.7 nM
  % Inhibition (ORL1) [1 μM]: 95%

## CN(C)C1(c2ccccc2)CCC(C(=N)c2cc3ccccc3n2C)(N2CCCC2)CC1 (stereo not shown)
Human μ-opiate receptor
  % Inhibition (μ) [1 μM]: 83%
ORL 1-receptor
  % Inhibition (ORL1) [1 μM]: 51%

## Cc1c(C2(N(C)C)CCC(c3ccccc3)(N(C)C)CC2)[nH]c2ccc(F)cc12 (stereo not shown)
ORL 1-receptor
  % Inhibition (ORL1) [1 μM]: 48%

## CNC(=O)CN(C)C1(c2ccccc2)CCC(c2ccccc2)(N(C)C)CC1 (stereo not shown)
ORL 1-receptor
  % Inhibition (ORL1) [1 μM]: 83%

## CN(C)C1(c2ccccc2)CCC(C(=O)c2cc3ccccc3n2C)(N2CCCC2)CC1 (single isomer, unassigned)
Human μ-opiate receptor
  % Inhibition (μ) [1 μM]: 48. %
ORL 1-receptor
  % Inhibition (ORL1) [1 μM]: 34%

## CN(Cc1cn(CO)c2ccccc12)CC1(C)CCC(c2ccccc2)(N(C)C)CC1 (stereo not shown)
Human μ-opiate receptor
  % Inhibition (μ) [1 μM]: 99%
ORL 1-receptor
  % Inhibition (ORL1) [1 μM]: 91%

## Cc1c(C2(NCc3ccccc3)CCC(c3ccccc3)(N(C)C)CC2)[nH]c2ccccc12.O=C(O)CC(O)(CC(=O)O)C(=O)O (stereo not shown)
Human μ-opiate receptor
  % Inhibition (μ) [1 μM]: 97%
ORL 1-receptor
  % Inhibition (ORL1) [1 μM]: 72%

## Cc1c(C2(N(C)C(=O)/C=C/c3ccccc3)CCC(c3ccccc3)(N(C)C)CC2)[nH]c2ccccc12 (stereo not shown)
Human μ-opiate receptor
  % Inhibition (μ) [1 μM]: 91%
ORL 1-receptor
  % Inhibition (ORL1) [1 μM]: 82%

## CNc1nc(N2CCCCC2)nc(N(C)C2(c3ccccc3)CCC(c3ccccc3)(N(C)C)CC2)n1 (stereo not shown)
Human μ-opiate receptor
  % Inhibition (μ) [1 μM]: 33%
ORL 1-receptor
  % Inhibition (ORL1) [1 μM]: 67%

## CN(C)C1(c2ccccc2)CCC(c2ccccc2)(N(C)CCO)CC1 (single isomer, unassigned)
ORL 1-receptor
  % Inhibition (ORL1) [1 μM]: 36%

## CN(C)CC1(c2ccccc2)CCC(c2ccccc2)(N(C)C)CC1 (stereo not shown)
Human μ-opiate receptor
  % Inhibition (μ) [1 μM]: 15%
ORL 1-receptor
  % Inhibition (ORL1) [1 μM]: 13%

## 4-(acetidin-1-yl)-1-(3-fluorophenyl)-N,N-dimethyl-4-(3-methyl-1H-indol-2-yl)cyclohexanamine [95]
Human μ-opiate receptor
  % Inhibition (μ) [1 μM]: 49%
ORL 1-receptor
  % Inhibition (ORL1) [1 μM]: 32%

## CNC1(c2ccccc2)CCC(c2cccs2)(N(C)C)CC1 (stereo not shown)
Human μ-opiate receptor
  % Inhibition (μ) [1 μM]: 29%
ORL 1-receptor
  % Inhibition (ORL1) [1 μM]: 35%

## Cc1c(C2(N(C)C)CCC(c3ccccc3)(N(C)C)CC2)[nH]c2ccc(F)cc12 (single isomer, unassigned)
ORL 1-receptor
  % Inhibition (ORL1) [1 μM]: 35%

## 4-(acetidin-1-yl)-1-(3-fluorophenyl)-N,N-dimethyl-4-(3-methyl-1H-indol-2-yl)cyclohexanamine [96]
Human μ-opiate receptor
  Ki: 235 nM
  % Inhibition (μ) [1 μM]: 62%
ORL 1-receptor
  Ki: 108 nM
  % Inhibition (ORL1) [1 μM]: 64%

## CN(C)C1(C(=N)c2cc3ccccc3n2C)CCC(c2ccccc2)(N(C)C)CC1.O=C(O)CC(O)(CC(=O)O)C(=O)O.O=C(O)CC(O)(CC(=O)O)C(=O)O (stereo not shown)
Human μ-opiate receptor
  % Inhibition (μ) [1 μM]: 0%
ORL 1-receptor
  % Inhibition (ORL1) [1 μM]: 81%

## CNC1(c2ccccc2)CCC(c2ccc(OC)cc2)(N(C)C)CC1 (single isomer, unassigned)
Human μ-opiate receptor
  % Inhibition (μ) [1 μM]: 40%
ORL 1-receptor
  % Inhibition (ORL1) [1 μM]: 50%

## COc1ccc(Oc2nc(Oc3ccc(OC)cc3)nc(N(C)C3(c4ccccc4)CCC(c4ccccc4)(N(C)C)CC3)n2)cc1 (single isomer, unassigned)
Human μ-opiate receptor
  % Inhibition (μ) [1 μM]: 97%
ORL 1-receptor
  % Inhibition (ORL1) [1 μM]: 85%

## CN(Cc1c[nH]c2ccccc12)CC1(C)CCC(c2ccccc2)(N(C)C)CC1 (stereo not shown)
Human μ-opiate receptor
  % Inhibition (μ) [1 μM]: 95%
ORL 1-receptor
  % Inhibition (ORL1) [1 μM]: 96%

## CN(C)C1(c2ccccc2)CCC(c2ccccc2)(N(C)C(=O)C(c2ccccc2)c2ccccc2)CC1 (stereo not shown)
Human μ-opiate receptor
  % Inhibition (μ) [1 μM]: 93%
ORL 1-receptor
  % Inhibition (ORL1) [1 μM]: 87%

## CN(C)C(=O)CN(C)C1(c2ccccc2)CCC(c2ccccc2)(N(C)C)CC1 (stereo not shown)
ORL 1-receptor
  % Inhibition (ORL1) [1 μM]: 70%

## Cc1c(C2(N3CCCCC3)CCC(c3ccccc3)(N(C)C)CC2)[nH]c2ccccc12 (stereo not shown)
ORL 1-receptor
  % Inhibition (ORL1) [1 μM]: 27%

## 2-[(4-dimethylamino-1,4-diphenyl-cyclohexyl)-methyl-amino]-N-methyl-acetamide
ORL 1-receptor
  % Inhibition (ORL1) [1 μM]: 23%

## CNc1nc(Oc2ccc(OC)cc2)nc(N(C)C2(c3ccccc3)CCC(c3ccccc3)(N(C)C)CC2)n1 (single isomer, unassigned)
ORL 1-receptor
  % Inhibition (ORL1) [1 μM]: 98%
